Usually Ki stands for a measure of affinity in units of concentration, obtained from inhibition or displacement.

The text below walks through data of ChEMBL document CHEMBL1130721, “Design and synthesis of novel conformationally restricted HIV protease inhibitors” (Bioorg Med Chem Lett, 1998).

In the assay the target is Human immunodeficiency virus type 1 protease (Human immunodeficiency virus 1, UniProt Q72874). Briefly: Compound was assayed for inhibition against HIV protease activity.

In turn, `CC(C)CN(C[C@@H](O)[C@H](Cc1ccccc1)NC(=O)O[C@H]1CCOC1)S(=O)(=O)c1ccc(N)cc1` [AMPRENAVIR] gave a Ki of 0.6 nM.
